Assays:
Experiment in all cases: radiometric filter-binding kinase assay, Kinase HotSpot
Settings in all cases: compound 0.5 µM; ATP 10 µM
[1] = target: ADRBK1 (human) (UniProt P25098)
[2] = target: ADRBK2 (human) (UniProt P35626)
[3] = target: AKT2 (human) (UniProt P31751)
[4] = tested on: ARAF (human), P10398 [Y301D/Y302D]
[5] = target: BMX (human) (UniProt P51813)
[6] = target: BRSK1 (human) (UniProt Q8TDC3)
[7] = target: CAMK4 (human) (UniProt Q16566)
[8] = target: CSNK1E (human) (UniProt P49674)
[9] = target: CSNK2A1 (human) (UniProt P68400)
[10] = target: EPHA5 (human) (UniProt P54756)
[11] = target: FER (human) (UniProt P16591)
[12] = target: FGFR2 (human) (UniProt P21802)
[13] = target: FRK (human) (UniProt P42685)
[14] = target: GRK6 (human) (UniProt P43250)
[15] = target: GSG2 (human) (UniProt Q8TF76)
[16] = target: IKBKB (human) (UniProt O14920)
[17] = target: JAK1 JH1 catalytic (human) (UniProt P23458)
[18] = target: MAP2K2 (human) (UniProt P36507)
[19] = target: MAP3K11 (human) (UniProt Q16584)
[20] = target: MAP3K9 (human) (UniProt P80192)
[21] = target: MAP4K5 (human) (UniProt Q9Y4K4)
[22] = target: MAPKAPK2 (human) (UniProt P49137)
[23] = target: MAPKAPK3 (human) (UniProt Q16644)
[24] = target: MATK (human) (UniProt P42679)
[25] = target: MINK1 (human) (UniProt Q8N4C8)
[26] = target: MYLK (human) (UniProt Q15746)
[27] = target: MYLK2 (human) (UniProt Q9H1R3)
[28] = target: NEK1 (human) (UniProt Q96PY6)
[29] = target: NEK2 (human) (UniProt P51955)
[30] = target: PAK3 (human) (UniProt O75914)
[31] = target: PHKG2 (human) (UniProt P15735)
[32] = target: PRKACG (human) (UniProt P22612)
[33] = target: PRKD2 (human) (UniProt Q9BZL6)
[34] = target: PRKD3 (human) (UniProt O94806)
[35] = target: RPS6KB1 (human) (UniProt P23443)
[36] = target: RPS6KB2 (human) (UniProt Q9UBS0)
[37] = target: SGK3 (human) (UniProt Q96BR1)
[38] = target: SIK2 (human) (UniProt Q9H0K1)
[39] = target: TGFBR1 (human) (UniProt P36897)
[40] = target: TSSK1B (human) (UniProt Q9BXA7)
[41] = target: TSSK2 (human) (UniProt Q96PF2)
[42] = target: YES1 (human) (UniProt P07947)

Protein sequences, listed by entry. Tags and fused reporters are not part of them. Lines headed by an entry give the natural chain unless they say otherwise; changes in a name come on top.
UniProt Q8TDC3: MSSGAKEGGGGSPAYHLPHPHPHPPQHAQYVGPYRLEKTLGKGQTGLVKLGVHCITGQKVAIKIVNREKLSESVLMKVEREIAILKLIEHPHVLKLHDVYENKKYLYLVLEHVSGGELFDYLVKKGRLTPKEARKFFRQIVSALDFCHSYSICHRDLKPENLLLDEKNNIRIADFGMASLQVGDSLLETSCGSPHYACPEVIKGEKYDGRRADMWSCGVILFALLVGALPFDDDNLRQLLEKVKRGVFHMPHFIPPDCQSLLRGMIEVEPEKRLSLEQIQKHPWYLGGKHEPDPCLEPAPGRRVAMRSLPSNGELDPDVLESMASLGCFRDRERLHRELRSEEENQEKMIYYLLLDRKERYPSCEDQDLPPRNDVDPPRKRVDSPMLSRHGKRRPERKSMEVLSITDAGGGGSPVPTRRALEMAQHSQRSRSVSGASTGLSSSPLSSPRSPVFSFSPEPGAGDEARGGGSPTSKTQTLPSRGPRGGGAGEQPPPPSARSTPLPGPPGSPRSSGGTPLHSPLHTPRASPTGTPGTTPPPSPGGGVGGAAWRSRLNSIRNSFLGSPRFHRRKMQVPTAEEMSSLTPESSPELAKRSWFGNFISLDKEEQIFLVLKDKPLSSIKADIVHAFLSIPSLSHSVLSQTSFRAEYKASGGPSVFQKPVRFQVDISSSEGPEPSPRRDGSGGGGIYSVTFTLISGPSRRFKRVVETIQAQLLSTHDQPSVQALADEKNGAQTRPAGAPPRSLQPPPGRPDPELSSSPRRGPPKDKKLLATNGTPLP
UniProt P16591: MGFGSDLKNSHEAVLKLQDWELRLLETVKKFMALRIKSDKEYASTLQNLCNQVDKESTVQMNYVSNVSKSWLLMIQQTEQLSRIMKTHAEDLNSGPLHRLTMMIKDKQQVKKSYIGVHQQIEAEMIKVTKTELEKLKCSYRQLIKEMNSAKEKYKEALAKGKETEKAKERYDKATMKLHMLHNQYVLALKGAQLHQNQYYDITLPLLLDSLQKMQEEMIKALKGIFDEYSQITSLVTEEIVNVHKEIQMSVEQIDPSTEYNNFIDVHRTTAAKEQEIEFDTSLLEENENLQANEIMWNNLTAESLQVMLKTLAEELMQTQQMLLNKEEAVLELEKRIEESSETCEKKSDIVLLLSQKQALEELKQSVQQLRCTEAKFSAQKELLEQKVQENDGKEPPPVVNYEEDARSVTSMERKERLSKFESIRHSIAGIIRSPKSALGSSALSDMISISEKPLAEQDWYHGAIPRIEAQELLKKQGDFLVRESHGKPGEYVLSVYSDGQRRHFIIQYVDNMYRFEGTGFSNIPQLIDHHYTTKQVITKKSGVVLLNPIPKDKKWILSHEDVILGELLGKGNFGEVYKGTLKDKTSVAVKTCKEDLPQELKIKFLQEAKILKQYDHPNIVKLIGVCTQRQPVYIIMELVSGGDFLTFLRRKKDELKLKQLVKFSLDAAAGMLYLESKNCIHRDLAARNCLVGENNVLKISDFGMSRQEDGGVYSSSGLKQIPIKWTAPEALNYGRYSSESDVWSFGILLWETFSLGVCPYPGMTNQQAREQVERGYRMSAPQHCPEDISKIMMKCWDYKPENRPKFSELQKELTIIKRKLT
UniProt P23458: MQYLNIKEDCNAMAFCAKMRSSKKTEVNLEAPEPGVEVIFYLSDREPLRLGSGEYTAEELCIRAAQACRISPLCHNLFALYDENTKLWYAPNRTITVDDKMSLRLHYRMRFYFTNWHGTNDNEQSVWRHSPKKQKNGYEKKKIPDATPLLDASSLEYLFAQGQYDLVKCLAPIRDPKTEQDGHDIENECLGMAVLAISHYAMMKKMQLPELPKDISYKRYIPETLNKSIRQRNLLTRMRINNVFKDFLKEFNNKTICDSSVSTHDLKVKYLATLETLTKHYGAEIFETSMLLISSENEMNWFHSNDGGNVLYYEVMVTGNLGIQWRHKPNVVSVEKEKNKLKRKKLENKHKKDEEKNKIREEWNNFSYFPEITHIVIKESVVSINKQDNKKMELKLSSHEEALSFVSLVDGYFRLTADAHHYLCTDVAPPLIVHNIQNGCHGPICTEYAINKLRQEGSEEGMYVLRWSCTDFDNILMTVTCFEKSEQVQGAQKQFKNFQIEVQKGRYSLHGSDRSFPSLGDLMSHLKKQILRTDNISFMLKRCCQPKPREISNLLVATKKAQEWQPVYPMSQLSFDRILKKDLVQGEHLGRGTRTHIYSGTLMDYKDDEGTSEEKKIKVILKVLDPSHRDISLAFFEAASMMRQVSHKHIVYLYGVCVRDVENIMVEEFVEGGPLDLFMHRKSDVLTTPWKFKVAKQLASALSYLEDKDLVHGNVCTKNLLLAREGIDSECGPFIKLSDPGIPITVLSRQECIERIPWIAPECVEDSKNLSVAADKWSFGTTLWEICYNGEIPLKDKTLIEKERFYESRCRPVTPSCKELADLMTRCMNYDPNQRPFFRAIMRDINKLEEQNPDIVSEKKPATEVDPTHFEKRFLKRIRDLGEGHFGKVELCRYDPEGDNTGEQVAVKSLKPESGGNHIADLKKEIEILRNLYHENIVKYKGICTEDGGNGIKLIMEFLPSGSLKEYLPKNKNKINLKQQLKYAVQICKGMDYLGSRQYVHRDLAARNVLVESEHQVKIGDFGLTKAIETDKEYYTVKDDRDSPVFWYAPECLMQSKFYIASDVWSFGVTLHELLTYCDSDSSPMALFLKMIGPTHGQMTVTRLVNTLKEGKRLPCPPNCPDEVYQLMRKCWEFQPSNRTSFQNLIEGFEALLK
UniProt Q16584: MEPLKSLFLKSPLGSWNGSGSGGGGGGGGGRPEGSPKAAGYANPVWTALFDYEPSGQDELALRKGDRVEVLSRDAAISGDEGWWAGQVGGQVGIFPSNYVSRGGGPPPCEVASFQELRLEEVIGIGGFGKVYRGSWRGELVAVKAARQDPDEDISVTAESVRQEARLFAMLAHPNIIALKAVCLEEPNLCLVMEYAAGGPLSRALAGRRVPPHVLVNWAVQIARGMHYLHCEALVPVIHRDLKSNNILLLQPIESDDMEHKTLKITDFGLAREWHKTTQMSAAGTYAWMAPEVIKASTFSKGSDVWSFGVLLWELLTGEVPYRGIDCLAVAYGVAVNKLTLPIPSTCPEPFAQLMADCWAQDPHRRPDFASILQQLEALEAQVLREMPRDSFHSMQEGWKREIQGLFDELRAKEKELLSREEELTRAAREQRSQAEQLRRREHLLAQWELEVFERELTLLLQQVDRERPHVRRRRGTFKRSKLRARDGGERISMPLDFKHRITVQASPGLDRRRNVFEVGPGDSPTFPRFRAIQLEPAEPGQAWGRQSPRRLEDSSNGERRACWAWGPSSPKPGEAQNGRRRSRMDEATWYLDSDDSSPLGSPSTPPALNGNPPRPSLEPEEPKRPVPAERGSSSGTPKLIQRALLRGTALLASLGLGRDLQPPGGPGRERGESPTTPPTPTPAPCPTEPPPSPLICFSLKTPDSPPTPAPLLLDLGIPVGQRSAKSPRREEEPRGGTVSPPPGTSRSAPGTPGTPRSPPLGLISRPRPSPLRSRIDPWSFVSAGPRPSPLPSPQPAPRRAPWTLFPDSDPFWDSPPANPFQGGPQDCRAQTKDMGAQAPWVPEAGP
UniProt Q16644, whole entry, looked up: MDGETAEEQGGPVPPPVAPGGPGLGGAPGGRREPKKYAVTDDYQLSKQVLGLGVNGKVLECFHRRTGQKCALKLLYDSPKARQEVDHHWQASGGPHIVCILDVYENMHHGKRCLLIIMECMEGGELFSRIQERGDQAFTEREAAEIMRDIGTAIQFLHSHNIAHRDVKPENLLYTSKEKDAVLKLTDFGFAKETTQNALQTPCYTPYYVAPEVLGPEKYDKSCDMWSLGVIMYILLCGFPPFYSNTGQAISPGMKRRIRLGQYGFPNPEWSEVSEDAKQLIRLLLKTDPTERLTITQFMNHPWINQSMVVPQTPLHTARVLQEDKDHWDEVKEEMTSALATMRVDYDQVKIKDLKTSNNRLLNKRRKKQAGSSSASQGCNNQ
UniProt P42679: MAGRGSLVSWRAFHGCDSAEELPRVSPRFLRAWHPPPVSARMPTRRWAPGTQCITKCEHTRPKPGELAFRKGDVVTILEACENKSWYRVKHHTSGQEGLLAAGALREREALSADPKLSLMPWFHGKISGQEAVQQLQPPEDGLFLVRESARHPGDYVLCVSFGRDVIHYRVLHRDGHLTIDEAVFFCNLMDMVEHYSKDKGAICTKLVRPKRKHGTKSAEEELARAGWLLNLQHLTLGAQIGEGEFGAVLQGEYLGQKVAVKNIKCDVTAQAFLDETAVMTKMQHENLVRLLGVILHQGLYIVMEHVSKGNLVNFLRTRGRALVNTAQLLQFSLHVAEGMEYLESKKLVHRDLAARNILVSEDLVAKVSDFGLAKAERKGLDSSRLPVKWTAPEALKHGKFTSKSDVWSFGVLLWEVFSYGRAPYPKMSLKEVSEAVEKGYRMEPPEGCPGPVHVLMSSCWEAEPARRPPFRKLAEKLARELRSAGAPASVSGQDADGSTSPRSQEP
UniProt O75914, whole entry, looked up: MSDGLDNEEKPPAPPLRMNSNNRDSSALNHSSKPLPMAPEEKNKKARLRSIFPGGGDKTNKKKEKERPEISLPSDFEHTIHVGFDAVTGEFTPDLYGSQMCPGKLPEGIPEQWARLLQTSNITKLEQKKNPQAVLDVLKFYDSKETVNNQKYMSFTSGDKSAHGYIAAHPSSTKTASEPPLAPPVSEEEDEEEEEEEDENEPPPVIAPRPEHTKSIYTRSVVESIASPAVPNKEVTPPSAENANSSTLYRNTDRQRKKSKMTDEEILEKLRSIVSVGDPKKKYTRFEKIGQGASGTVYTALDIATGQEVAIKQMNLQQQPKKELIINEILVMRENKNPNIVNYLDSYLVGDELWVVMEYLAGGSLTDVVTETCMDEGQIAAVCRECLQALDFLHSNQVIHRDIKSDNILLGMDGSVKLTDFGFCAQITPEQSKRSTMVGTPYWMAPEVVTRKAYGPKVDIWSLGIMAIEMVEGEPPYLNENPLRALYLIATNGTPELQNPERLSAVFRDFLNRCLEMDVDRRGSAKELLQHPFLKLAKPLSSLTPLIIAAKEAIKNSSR
UniProt P15735: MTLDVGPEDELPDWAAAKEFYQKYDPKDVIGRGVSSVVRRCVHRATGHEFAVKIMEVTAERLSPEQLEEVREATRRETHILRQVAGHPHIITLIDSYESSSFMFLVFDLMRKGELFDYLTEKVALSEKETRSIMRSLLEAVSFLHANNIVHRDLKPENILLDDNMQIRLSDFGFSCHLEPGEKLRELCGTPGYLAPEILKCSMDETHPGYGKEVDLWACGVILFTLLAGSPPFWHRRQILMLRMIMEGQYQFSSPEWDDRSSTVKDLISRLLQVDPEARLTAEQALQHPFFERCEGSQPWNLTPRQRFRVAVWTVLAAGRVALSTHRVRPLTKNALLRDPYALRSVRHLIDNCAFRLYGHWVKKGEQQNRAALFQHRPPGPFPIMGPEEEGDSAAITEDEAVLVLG
UniProt Q9UBS0: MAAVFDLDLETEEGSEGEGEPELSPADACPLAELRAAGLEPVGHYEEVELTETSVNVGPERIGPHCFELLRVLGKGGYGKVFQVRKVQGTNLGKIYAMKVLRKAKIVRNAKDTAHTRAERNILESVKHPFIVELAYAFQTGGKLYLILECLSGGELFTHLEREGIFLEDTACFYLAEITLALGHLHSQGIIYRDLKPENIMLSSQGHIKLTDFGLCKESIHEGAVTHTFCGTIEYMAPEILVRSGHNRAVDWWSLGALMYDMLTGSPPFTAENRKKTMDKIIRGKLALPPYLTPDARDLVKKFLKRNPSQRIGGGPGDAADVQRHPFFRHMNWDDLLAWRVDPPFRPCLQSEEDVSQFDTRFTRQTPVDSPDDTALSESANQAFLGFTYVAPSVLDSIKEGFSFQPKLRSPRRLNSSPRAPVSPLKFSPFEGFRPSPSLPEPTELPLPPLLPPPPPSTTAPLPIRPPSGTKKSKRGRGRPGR
UniProt P36897: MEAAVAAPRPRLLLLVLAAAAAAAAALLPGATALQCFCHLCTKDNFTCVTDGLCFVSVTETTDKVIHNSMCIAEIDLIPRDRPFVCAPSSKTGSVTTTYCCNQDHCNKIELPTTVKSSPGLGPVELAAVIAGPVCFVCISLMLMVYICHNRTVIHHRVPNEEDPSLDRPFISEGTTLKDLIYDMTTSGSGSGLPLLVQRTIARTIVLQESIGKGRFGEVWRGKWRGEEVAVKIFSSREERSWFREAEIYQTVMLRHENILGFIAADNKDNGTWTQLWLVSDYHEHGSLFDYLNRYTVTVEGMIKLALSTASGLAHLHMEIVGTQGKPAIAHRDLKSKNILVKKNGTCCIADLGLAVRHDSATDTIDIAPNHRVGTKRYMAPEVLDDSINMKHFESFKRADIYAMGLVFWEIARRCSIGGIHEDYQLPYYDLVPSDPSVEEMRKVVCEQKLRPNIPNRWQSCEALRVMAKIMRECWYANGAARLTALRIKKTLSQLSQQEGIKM

Structure (SMILES): O=C1Nc2ccc3ncsc3c2/C1=C/c1c[nH]cn1
- residual activity [1]: 107%
- residual activity [2]: 97.3%
- residual activity [3]: 89.7%
- residual activity [4]: 115%
- residual activity [5]: 81.9%
- residual activity [6]: 10%
- residual activity [7]: 101%
- residual activity [8]: 35.7%
- residual activity [9]: 48.2%
- residual activity [10]: 92.3%
- residual activity [11]: 77.9%
- residual activity [12]: 37.6%
- residual activity [13]: 85%
- residual activity [14]: 67.7%
- residual activity [15]: 5.68%
- residual activity [16]: 70.2%
- residual activity [17]: 53.9%
- residual activity [18]: 95%
- residual activity [19]: 28.9%
- residual activity [20]: 46.1%
- residual activity [21]: 6.41%
- residual activity [22]: 97.6%
- residual activity [23]: 91%
- residual activity [24]: 102%
- residual activity [25]: 24.4%
- residual activity [26]: 40.1%
- residual activity [27]: 12%
- residual activity [28]: 34.3%
- residual activity [29]: 77.2%
- residual activity [30]: 85.4%
- residual activity [31]: 68.1%
- residual activity [32]: 87.6%
- residual activity [33]: 4.17%
- residual activity [34]: 3.58%
- residual activity [35]: 57.1%
- residual activity [36]: 95.1%
- residual activity [37]: 81.2%
- residual activity [38]: 74%
- residual activity [39]: 103%
- residual activity [40]: 60.1%
- residual activity [41]: 94.9%
- residual activity [42]: 54.3%

From the kinase profiling compilation of Christmann-Franck et al. (2016)
